# Apparent affinities of Ab-14 variants for a coronavirus HR2 peptide

All variants were tested on one target, the spike HR2 peptide PDVDLGDISGINAS (SARS-CoV-2).

Ab-14 is the parent antibody, in scFv form: VH, then the linker GGGGSGGGGSGGGGS, then VL. The heavy chain is unchanged in all variants.
VH: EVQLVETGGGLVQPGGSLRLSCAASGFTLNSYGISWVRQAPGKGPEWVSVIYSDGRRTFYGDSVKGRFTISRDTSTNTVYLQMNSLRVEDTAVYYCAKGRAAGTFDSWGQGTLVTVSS
VL: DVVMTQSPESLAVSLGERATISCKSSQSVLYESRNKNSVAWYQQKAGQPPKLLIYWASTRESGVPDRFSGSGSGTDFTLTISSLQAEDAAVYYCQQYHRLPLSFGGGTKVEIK

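The starting antibody came from a phage panning campaign against this peptide. These sequences belong to a second round, designed from the earlier measurements on random variants of the parent. Their group label is 14L_En_HC (En: ensemble of fine-tuned language models; HC: hill climbing; a sequence that several methods proposed may carry one label only). The assay is AlphaSeq: two haploid yeast populations carry antibody and antigen on their surface. Binding brings cells together so that they mate, and sequencing counts the barcode pairs among the diploids. Read counts were normalised to the haploid input and turned into Kd by a linear fit to BCL2-family pairs of known affinity, for each replicate. The assay was run in six technical replicates.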

Each variant is given by its three light chain CDRs, as the data file delimits them; those of the parent are KSSQSVLYESRNKNSVA, WASTRES, QQYHRLPLS. The read-out is the apparent dissociation constant on a log10 scale (nM): the lower, the stronger. A pair that was not seen in that replicate is written "ND"; this usually means weak binding, but a binder can also be missed.

For TIGQSVHETSRIKNSVA | HATTRED | QQYDRLPLS, the assay gave 0.21, -0.12, -0.26, -0.33, -0.17, -0.12 (controls 0 of 18).
For MMSQLTYTGSRARNAVA | QAETRVN | QQYHHLPLI, the assay gave 1.02, 0.74, 0.68, 0.34, 1.09, 1.04 (controls 2 of 18).
For KVSQSVLMLSRNKNSVA | DNSTSGS | QQYHRLPLS, the assay gave 1.49, 1.61, 0.76, 1.09, 1.00, 1.33 (controls 1 of 18).
For KLSQSVNMTGKNKNSVA | ELSFREN | QQYERLPLS, the assay gave 0.92, 0.90, 0.61, 0.95, 1.30, 0.75 (controls 0 of 18).
For MMSYGWLYGSRNKRNVA | DRETRER | QQYDRLPLS, the assay gave 0.63, 0.70, 0.73, 0.53, 0.66, 0.60 (controls 0 of 18).
For KISGQYRYEQLSKNSIA | EAQTRLK | QQYHRLPLS, the assay gave 0.96, 0.08, 0.02, 0.20, 0.52, 0.36 (controls 0 of 18).
For KLYVSTMLESHVKNSIA | DLSTRGN | QQYHRLPLS, the assay gave 0.37, 0.31, 0.05, 0.13, 0.31, 0.46 (controls 1 of 18).
For MLSDLVKIGSRNTNSVA | DNSTRGS | QQYDRLPLS, the assay gave ND, 3.07, 2.35, ND, 1.77, 2.16 (controls 1 of 18).
For KIYAATMLETHDKNSIA | DLTNRGN | QQYHRLPLS, the assay gave 2.14, 1.15, 1.15, 1.76, 1.25, 1.44 (controls 0 of 18).
For KIGSQVTYESTNKNAIA | QMTTREE | QQYHRLPLS, the assay gave 0.39, 0.13, -0.07, -0.03, -0.24, 0.39 (controls 3 of 18).
For KLSQSVLFWGHAINSVA | EMETREK | QQYDRLPLS, the assay gave 0.33, 0.21, 0.34, 0.53, 0.28, 0.49 (controls 0 of 18).
For KILQTVMNETRNRNNVA | HMTTRED | QQYFRLPLS, the assay gave 1.30, 0.98, 2.27, 1.86, 1.96, 1.74 (controls 0 of 18).
For KITGLVMETSRNKNNVA | EVSTLPD | QQYHRLPLS, the assay gave 0.66, 0.26, 0.13, -0.04, -0.23, 0.49 (controls 0 of 18).
For KISGYLQKESKNKHSVA | EMVNRES | QQYDRLPLS, the assay gave 0.62, 0.66, 0.51, 0.43, 0.44, 0.65 (controls 0 of 18).
For MFSQSVMYGSFYRNSVA | QTSTREE | QQYDRLPLS, the assay gave 0.80, 0.53, 0.55, 0.41, 0.41, 0.61 (controls 1 of 18).
For TLSQSMDTTSRNVNSVA | DLTTRGN | QQYHRLPLS, the assay gave 0.22, -0.06, 0.11, -0.21, 0.12, 0.21 (controls 3 of 18).
For ILSQMMLTAGNKHSSVA | QANNRES | QQYHRLPLS, the assay gave 1.74, 1.56, 1.04, 1.03, 1.69, 1.22 (controls 0 of 18).
For KLLQVTETMSLNRNSVA | HMSTRED | QQYNRLPLS, the assay gave ND, 4.07, 1.97, 0.71, 2.91, 1.69 (controls 3 of 18).
For KISQMVTYESTWWNAIA | QTSTREE | QQYHRLPLS, the assay gave 0.72, 0.65, 0.58, 0.75, 0.66, 1.18 (controls 2 of 18).
For KISMMYRFEQTASNNIA | EMTTRAE | QSYHRLPLA, the assay gave 1.33, 1.07, 1.03, 1.50, 1.62, 1.77 (controls 2 of 18).
For KLSQNVLFFGHAINSVA | EMETREN | QQYDRLPLS, the assay gave 0.98, 0.72, 1.43, 0.42, 0.73, 0.85 (controls 3 of 18).
For QLYAVQDMTSKNKNNVA | EQSTREN | QQYHRLPLS, the assay gave 0.81, 0.68, 0.97, 0.69, 0.66, 0.68 (controls 0 of 18).
For KLSAFHQVESINKSNVA | EMVTRES | QQYDRLPLS, the assay gave ND, 2.57, ND, ND, 4.59, ND (controls 1 of 18).
For MISDLTMYGSRKKNSVA | DLSTRGS | QQYHRLPLS, the assay gave 0.32, 0.26, 0.37, 0.04, 0.28, 0.47 (controls 0 of 18).
For KLSTVTEYESRNKNNVA | DLSTRGS | QDYHRLPLS, the assay gave 0.02, -0.17, -0.24, -0.48, -0.13, -0.11 (controls 0 of 18).
For TISQSHQMESHNKNSVA | DLNVRGS | QQYDRLPLS, the assay gave -0.48, -0.25, -0.62, 0.05, -0.67, -0.51 (controls 0 of 18).
For HIAMMVGTKGYNKNSVA | NAETRED | QQYHRLPLS, the assay gave 3.00, 1.99, 1.05, 1.50, 2.30, 1.51 (controls 1 of 18).
For KISMSYRYEMQEKNSIA | EMTTREE | QSYHRLPLS, the assay gave 1.19, 0.31, 1.32, 0.47, 0.58, 0.74 (controls 0 of 18).
For KLYQSMGYLSRNKQSIA | DMSRREN | QQYHRLPLS, the assay gave 0.25, 0.33, 0.83, 0.26, 0.77, 0.95 (controls 1 of 18).
For KIGGVTNGISRNKQSVA | EQSTRED | QQYNRLPLS, the assay gave 1.11, 0.90, 1.52, 0.83, 0.63, 1.15 (controls 0 of 18).
For TISTSMRYETSLKNAIA | NAQTRES | QQYHRLPLS, the assay gave 0.14, 0.15, 0.07, 0.08, -0.05, 0.34 (controls 2 of 18).
For SITQLVAYGSRNKNSVA | QMSTREE | QQYDRLPLS, the assay gave 0.38, 0.25, 0.27, 0.20, 0.29, 0.65 (controls 1 of 18).
For KIMQMLNYSQFNVSNVA | GQETRER | QSYHRLPLS, the assay gave 2.02, ND, 2.16, ND, ND, 1.82 (controls 1 of 18).
For HISMSVGMTQFNKNSVA | ENSTREN | QQYDRLPLS, the assay gave 1.05, 1.23, 0.96, 1.51, 1.01, 1.39 (controls 1 of 18).
For KISSLTMYESVQKNNIA | EMTTRPE | QSYHRLPLS, the assay gave 0.99, 1.14, 0.42, 1.25, 1.17, 0.99 (controls 0 of 18).
For TISQSVNMTSRGKNSVA | QAEMREA | QQYDRLPLS, the assay gave 1.72, 1.74, 1.75, 1.22, 1.78, 1.75 (controls 0 of 18).
For KLSESAHFESRKKNSIA | ENSTRES | QQYYHLPLS, the assay gave 0.59, 0.45, 0.43, 0.32, 0.41, 0.65 (controls 1 of 18).
For TLSDVTRMESNKKSSIA | DMSNRAD | QQYHRLPIS, the assay gave 0.55, 0.48, 0.08, 0.17, 0.62, 0.47 (controls 2 of 18).
For TISQSVNMTSHGRNSVA | QAEMREQ | QQYDRLPLS, the assay gave 1.03, 0.95, 0.98, 1.14, 1.00, 1.21 (controls 2 of 18).
For TISGSAQQESHNKNSVA | DLSVRGS | QQYHRLPLS, the assay gave 0.38, 0.31, 0.43, 0.37, 0.44, 0.55 (controls 2 of 18).
For KLRQMTLTEGYFKNSVA | QASTREN | QSYHRLPLS, the assay gave 0.65, 0.73, 0.57, 0.55, 0.51, 0.75 (controls 3 of 18).
For HISDLIMVASRNKNSVA | DESTRPD | QQYHRLPLS, the assay gave -0.27, -0.07, -0.04, -0.16, 0.03, 0.01 (controls 0 of 18).
For TVSQVNGMLSHNKNSVA | DMNTRGS | QQYDRLPLS, the assay gave 0.46, 0.49, 0.49, 0.36, 0.26, 0.44 (controls 1 of 18).
For KLYSNVGTMSLNKQSIA | DMERRED | QQYHRLPLS, the assay gave 0.09, -0.07, -0.10, -0.20, 0.10, 0.28 (controls 1 of 18).
For ALGDVTRMESNKKNSIA | DMSNREA | QQYHRLPLS, the assay gave 0.00, 0.00, -0.25, 0.10, 0.08, 0.21 (controls 0 of 18).

Picked from the list: the 7 lowest averages where every replicate gave a value.

TISQSHQMESHNKNSVA | DLNVRGS | QQYDRLPLS: -0.48, -0.25, -0.62, 0.05, -0.67, -0.51 (controls 0 of 18).
KLSTVTEYESRNKNNVA | DLSTRGS | QDYHRLPLS: 0.02, -0.17, -0.24, -0.48, -0.13, -0.11 (controls 0 of 18).
TIGQSVHETSRIKNSVA | HATTRED | QQYDRLPLS: 0.21, -0.12, -0.26, -0.33, -0.17, -0.12 (controls 0 of 18).
HISDLIMVASRNKNSVA | DESTRPD | QQYHRLPLS: -0.27, -0.07, -0.04, -0.16, 0.03, 0.01 (controls 0 of 18).
KLYSNVGTMSLNKQSIA | DMERRED | QQYHRLPLS: 0.09, -0.07, -0.10, -0.20, 0.10, 0.28 (controls 1 of 18).
ALGDVTRMESNKKNSIA | DMSNREA | QQYHRLPLS: 0.00, 0.00, -0.25, 0.10, 0.08, 0.21 (controls 0 of 18).
TLSQSMDTTSRNVNSVA | DLTTRGN | QQYHRLPLS: 0.22, -0.06, 0.11, -0.21, 0.12, 0.21 (controls 3 of 18).

Empty control strains, which show no peptide, gave a signal in 4% of pairings with all light chain designs; the median was 2.64 and 95% of these signals were weaker than 1.59. No background was subtracted. Also given: how often the same scFv was detected with the empty control strains. A sequence measured in both rounds can read differently, since the two assays cover different ranges. In the paper, a design with two or fewer of six values counts as a poor binder.

Reference: Li et al. 2023, doi:10.1038/s41467-023-39022-2. File: FLAb, binding data.